Reference: patent publication US20250136601A1 (priority 2022, published 2025)

Experiment: in vivo
Details: male, C57, mouse, ip, 5 mg/kg

## COc1ccccc1CCCN1CC[C@@H]2[C@H](C1)c1cccc3c1N2CCO3 (single isomer, unassigned) [Compound I-23]
  Kp: 3.38
